For the test, the target named is mDAT (Mus musculus, UniProt Q61327). Kind of test: [^3H]DA uptake by mDAT expressed in HEK-293 cells. In kind it is cell-based. The settings on record: read-out: [^3H]DA uptake, IC50 ± SEM; mDAT in HEK-293 cells.

Sequences of proteins named here, by UniProt entry; tags and fusion partners are left off.
UniProt Q61327, whole entry: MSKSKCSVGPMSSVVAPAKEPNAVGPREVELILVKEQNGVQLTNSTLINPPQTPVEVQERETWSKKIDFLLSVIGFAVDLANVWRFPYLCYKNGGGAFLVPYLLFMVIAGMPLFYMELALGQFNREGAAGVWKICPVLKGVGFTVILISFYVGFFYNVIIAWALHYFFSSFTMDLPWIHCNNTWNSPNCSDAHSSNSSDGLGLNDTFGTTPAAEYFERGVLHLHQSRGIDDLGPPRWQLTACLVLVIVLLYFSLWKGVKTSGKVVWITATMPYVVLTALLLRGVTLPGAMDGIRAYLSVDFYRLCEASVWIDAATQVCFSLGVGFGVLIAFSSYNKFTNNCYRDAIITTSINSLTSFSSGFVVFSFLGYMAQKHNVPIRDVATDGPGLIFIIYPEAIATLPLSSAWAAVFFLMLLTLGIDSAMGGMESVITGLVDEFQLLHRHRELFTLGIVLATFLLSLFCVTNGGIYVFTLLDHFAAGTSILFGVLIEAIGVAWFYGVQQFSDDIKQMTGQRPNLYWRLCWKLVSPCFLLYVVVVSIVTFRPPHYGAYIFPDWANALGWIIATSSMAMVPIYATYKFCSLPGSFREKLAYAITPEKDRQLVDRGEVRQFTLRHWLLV

Each structure is given as a SMILES string.

As a reminder, the IC50 is the concentration that inhibits the measured activity by half.

With `OC1(c2ccc(Cl)cc2)c2ccccc2C2=NCCN21` (racemic) [compound 26, (±)-5-(4-chlorophenyl)-3,5-dihydro-2H-imidazo[2,1-a]isoindol-5-ol], the IC50 was 13 ± 2.6 nM.
